{
  "sequences": {"note": "By UniProt entry, the sequences of proteins in these tests, tags left out.", "UniProt P33261, whole entry": "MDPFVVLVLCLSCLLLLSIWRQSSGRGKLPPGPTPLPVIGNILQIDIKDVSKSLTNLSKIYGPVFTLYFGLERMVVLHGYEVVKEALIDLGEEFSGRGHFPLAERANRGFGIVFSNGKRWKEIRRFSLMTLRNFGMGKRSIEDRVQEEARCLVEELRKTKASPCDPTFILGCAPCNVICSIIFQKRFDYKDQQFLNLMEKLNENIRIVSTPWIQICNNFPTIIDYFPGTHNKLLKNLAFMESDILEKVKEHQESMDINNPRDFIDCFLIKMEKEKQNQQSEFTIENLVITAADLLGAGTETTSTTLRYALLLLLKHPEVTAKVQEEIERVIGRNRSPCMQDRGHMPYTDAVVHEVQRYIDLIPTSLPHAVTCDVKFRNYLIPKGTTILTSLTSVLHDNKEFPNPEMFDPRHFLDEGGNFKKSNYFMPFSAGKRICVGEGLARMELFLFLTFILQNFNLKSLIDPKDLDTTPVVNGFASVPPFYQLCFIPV"},
  "source": "paper PMC10298982",
  "about": "“Stability Characterization of the Novel Anti-Cancer HM-10/10 HDL-Mimetic Peptide” (International Journal of Molecular Sciences, 2023)",
  "target": "CYP2C19 (Homo sapiens, UniProt P33261)",
  "assay": "CYP450 time-dependent inhibition, CYP2C19, pooled human liver microsomes",
  "conditions": "read-out: IC50 (µM) PI + NADPH; Mephenytoin (2C19); PI + NADPH (30-min preincubation)",
  "data": [
    {"smiles": "COc1ccc2[nH]c([S+]([O-])Cc3ncc(C)c(OC)c3C)nc2c1", "note": "(stereo not shown) [Omeprazole, omeprazole]", "values": [
      {"measurement": "IC50", "value": 2.54, "unit": "µM"}
    ]}
  ]
}
